The list shows a part of the results, in another mix than the full data. Calls of active or inactive are those of the source. The call rests on the fitted dose curve; in most records, active means well fitted inhibition curve with a large enough effect; inconclusive means small, poorly fitted or top-dose-only effect; inactive means no such curve, though single readings can be large or run the other way.
target: Isocitrate dehydrogenase [NADP] cytoplasmic (Homo sapiens) (UniProt O75874); assay: qHTS for Inhibitors of mutant isocitrate dehydrogenase 1 (IDH1): qHTS; conditions: IDH1-R132H enzyme, NADPH consumption, diaphorase/resazurin fluorescence; at 76.6 µM (top of the series); further: nearly all actives have a fitted effect of over 65% in size
How it was run: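 IDH1-R132H (0.5 ug/mL dispensed) in pH 7.5 Tris buffer was preincubated 30 min with compound, then given a substrate mix of 0.016 mM NADPH and 2 mM alpha-KG for 80 min at room temperature; remaining NADPH was read by diaphorase/resazurin fluorescence.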
On the % scale 0 is the no-effect control and ±100 the full control effect.

The chains behind the UniProt entries cited, without tags or fusion partners.
UniProt O75874, whole entry, looked up, stated change not applied: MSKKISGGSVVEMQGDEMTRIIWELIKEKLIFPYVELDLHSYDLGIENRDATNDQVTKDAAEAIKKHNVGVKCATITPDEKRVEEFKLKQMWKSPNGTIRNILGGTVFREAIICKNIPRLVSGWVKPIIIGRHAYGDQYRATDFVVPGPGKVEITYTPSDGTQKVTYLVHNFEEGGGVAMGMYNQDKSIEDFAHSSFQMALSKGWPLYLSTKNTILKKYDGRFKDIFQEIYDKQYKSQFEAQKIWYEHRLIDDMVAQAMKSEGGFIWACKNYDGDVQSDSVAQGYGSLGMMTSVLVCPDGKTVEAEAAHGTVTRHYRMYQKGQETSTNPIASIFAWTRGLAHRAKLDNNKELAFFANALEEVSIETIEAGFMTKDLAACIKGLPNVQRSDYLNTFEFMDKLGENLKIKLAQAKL

| Structure (SMILES) | activity change, negative = inhibition |
| --- | --- |
| COC(=O)C1(C)COP(=O)(NCc2ccccc2)OC1 (stereo not given) | inactive: 2.23% |
| N#C/C(=C\c1ccc(N(CCBr)CCBr)cc1)C(N)=O | inactive: 13% |
| CC(=O)c1ccc(N2CC2c2ccncc2)cc1 (stereo not given) | inactive: -6.54% |
| C[C@@H]1C=CCP(=O)(Oc2ccccc2)O1 (stereo not given in full) | inactive: -8.16% |
| C[C@H]1OP(=O)(Oc2ccccc2)C[C@@H]2O[C@@H]21 (stereo not given in full) | inactive: 15.8% |
| Cc1ccccc1CN(C)C(=O)COC(=O)C(O)(c1ccccc1)c1ccccc1 | inactive: 1.48% |
| CC(=O)Nc1ccc(Oc2c([N+](=O)[O-])cc([N+](=O)[O-])cc2[N+](=O)[O-])cc1 | inactive: 0.208% |
| CC(=O)Nc1ccc([As](=O)(O)O)c(O)c1 | inactive: 3.08% |
| CCOc1ccc(C2=NCC(CBr)S2)cc1 (stereo not given) | inactive: -11.5% |
| O=P1(Nc2nc3ccc(Cl)cc3s2)COc2ccccc2O1 (stereo not given) | inactive: 0.648% |
| CCc1cc(O)c([N+](=O)[O-])c(C)c1[N+](=O)[O-] | inactive: -4.96% |
| CC(C)(C)C(=O)NC(Sc1ccccc1)C(Cl)(Cl)Cl (stereo not given) | inactive: 0.717% |
| CC(C)CC(=O)NC(Sc1ccc(Cl)cc1)C(Cl)(Cl)Cl (stereo not given) | inactive: 7.7% |
| Nc1cc(N)c2nonc2c1[N+](=O)[O-] | inactive: 3.68% |
| O=C(NC(Sc1ccncn1)C(Cl)(Cl)Cl)c1ccccc1 (stereo not given) | inactive: 1.34% |
| Oc1ccccc1CNc1ccccn1 | inactive: 1.05% |
| NC(=O)c1cc([N+](=O)[O-])cc([N+](=O)[O-])c1N | inactive: -5.11% |
| Cc1ccc(N/C(=N/P(=O)(N2CCOCC2)N2CCOCC2)N2CCOCC2)cc1 | inactive: 4.53% |
| CN(C(=O)Cc1ccc(Cl)c(Cl)c1)[C@H]1CCCC[C@H]1N1CCCC1 | inactive: -18.2% |
| Cc1ccc(OP(=O)(Nc2nccs2)Oc2ccc(C)cc2)cc1 | inactive: 1.59% |
| COc1ccccc1OP(=O)(Nc1ccc(C)cn1)Oc1ccccc1OC | inactive: 0.581% |
| Clc1ccc(Cl)c(NC2=NCC(CBr)S2)c1 (stereo not given) | inactive: 4.01% |
| CN1CCCC(OC(=O)C(c2ccccc2)c2ccccc2)C1 (stereo not given) | inactive: 4.17% |
| CCN(N=Nc1nonc1N)c1nonc1N | inactive: -3.52% |
| Nc1cccc2ccc([As](=O)(O)O)cc12 | inactive: 8.35% |
| CCCC1OP(N)(=O)OCC1CC (stereo not given) | inactive: 4.87% |
| O=C(O)c1ccccc1[As](=O)(O)O | inactive: -1.04% |
| CC(=O)Nc1ccc([As](=O)(O)O)cc1 | inactive: 4.17% |

| Structure (SMILES) | activity change, negative = inhibition |
| --- | --- |
| CN(C)P(=O)(N(C)C)n1c(Nc2ccccc2)nnc1-c1ccccc1 | inactive: 1.71% |
| O=P(Nc1nc2ccc(Cl)cc2s1)(c1ccccc1)c1ccccc1 | inactive: -4.91% |
| Cc1ccc(NP(=O)(Oc2ccccc2F)Oc2ccccc2F)nc1 | inactive: 2.23% |
| CN(C(=O)Cc1ccc(Cl)c(Cl)c1)[C@H]1CCCC[C@@H]1N1CCCC1 | inactive: 2.35% |
| CCOP(=O)(Nc1ccccc1)OCC | inactive: 7.72% |
| Cc1cc(SC(NC(=O)c2ccc(F)cc2)C(Cl)(Cl)Cl)ncn1 (stereo not given) | inactive: 3.68% |
| CC(C)(C)C(=O)NC(Sc1ccncn1)C(Cl)(Cl)Cl (stereo not given) | inactive: 3.7% |
| O=[N+]([O-])c1ncn(CCn2ncnc2[N+](=O)[O-])n1 | inactive: 0.314% |
| O=[N+]([O-])c1cccc(NC2=NCC(CBr)S2)c1 (stereo not given) | inactive: -6.39% |
| COC(=O)C1(C)COP(=O)(Nc2ccccc2)OC1 (stereo not given) | inactive: -1.73% |
| O=C(O)CNc1ccc([As](=O)(O)O)cc1 | inactive: 0.683% |
| O=P1(N(CCCl)CCCl)OCCCS1 (stereo not given) | inactive: -8.5% |
| O=C(Nc1cc([As](=O)(O)O)ccc1O)c1ccccc1 | inactive: -3.95% |
| C[N+]1=C2C=CC=CC=C2SC12C([N+](=O)[O-])=CC([N+](=O)[O-])=C[C-]2[N+](=O)[O-] (stereo not given) | inactive: 11.3% |
| Nc1ccc([As](=O)(O)c2ccc(N)cc2)cc1 | inactive: 6.82% |
| CCN(/C(=N/P(=O)(N1CCOCC1)N1CCOCC1)N1CCOCC1)c1ccc(OC)cc1 | inactive: 0.795% |
| CN(C)C(=O)OCCc1n(C)cc[n+]1C | inactive: 1.02% |
| CC(C)=N/N=C(\N)N[N+](=O)[O-] | inactive: 1.53% |
| CC(C)c1nc(Nc2ccccc2)n(P(=O)(N(C)C)N(C)C)n1 | inactive: 7.1% |
| c1cc(-c2nn[nH]n2)ccc1-c1nn[nH]n1 | inactive: 1.24% |
| CC1CCN(C(=O)Oc2c(Cl)cc(Cl)c3cccnc23)CC1 | inactive: 3.69% |
| COc1ccc(C2=NCC(CBr)S2)cc1 (stereo not given) | inactive: 9.91% |
| O=[N+]([O-])c1cccc2n[nH]nc12 | inactive: 2.2% |
| CC(=O)N1C2C3N(C(C)=O)C1C1N(C(C)=O)C(C(N1C(C)=O)N3C(C)=O)N2C(C)=O | inactive: -1.07% |
| CCc1nc2c(n1)c1c(non1O)c1c2no[n+]1[O-] | inactive: 5.41% |
| O=[N+]([O-])c1cc([N+](=O)[O-])c(CCNc2ccccc2)c([N+](=O)[O-])c1 | inactive: 2.16% |
| Cc1ccc(NP(=O)(Oc2ccccc2)Oc2ccccc2)nc1 | inactive: -1.03% |
